For the test, the target named is recombinant human CK2 (Homo sapiens (Human), UniProt P68400). Nature of the test: CK2 assay (cell-free, radiometric, substrate peptide […]). It is filed as biochemical.
The mark [1] stands for this setting: read-out: CK2: IC50 (uM) (15 uM ATP), 15 uM ATP, Table 13.

By UniProt entry, the sequences of proteins in these tests, tags left out.
UniProt P68400, whole entry: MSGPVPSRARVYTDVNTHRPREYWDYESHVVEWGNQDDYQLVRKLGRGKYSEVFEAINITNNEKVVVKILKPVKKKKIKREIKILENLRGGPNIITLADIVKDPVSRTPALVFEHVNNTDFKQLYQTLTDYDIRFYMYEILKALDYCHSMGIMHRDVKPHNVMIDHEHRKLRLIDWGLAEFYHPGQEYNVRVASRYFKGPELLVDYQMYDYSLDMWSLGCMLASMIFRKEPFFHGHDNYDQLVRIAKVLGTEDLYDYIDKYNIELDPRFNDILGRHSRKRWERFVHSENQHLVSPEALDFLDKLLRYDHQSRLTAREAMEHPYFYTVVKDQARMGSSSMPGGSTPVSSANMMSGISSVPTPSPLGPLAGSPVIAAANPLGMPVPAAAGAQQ

Like-named read-outs stand apart in the source and are kept apart here. Where only a bound is given, the exact number is not on record here.

In general, IC50 refers to the concentration that gives 50% inhibition.

`O=C(NCCCO)c1ccc2c(c1)nc(NCCCO)c1ccsc12` [drawing 430]: the IC50 (Table 11, read-out: CK2 IC50) was over 10 µM.
Turning to `CN(C)CCNc1nc2cc(C(=O)O)ccc2c2cnc(NC3CC3)nc12` [drawing 663], under setting [1], the IC50 was over 0.75 µM.
`COC(=O)c1ccc2c(c1)nc(Cl)c1ccsc12` [drawing 429]: the IC50 (Table 11, read-out: CK2 IC50) was over 10 µM.
Turning to `O=C(O)c1ccc2c(c1)nc(N1CCOCC1)c1nc(NC3CC3)ncc12` [drawing 648], the IC50 under setting [1] is over 0.75 µM.
The same measure, in the same setting: the same measure for `COC(=O)c1ccc2c(c1)nc(NC1CC1)c1nc(SC)ncc12` [drawing 662]: over 0.75 µM; for `O=C(O)c1ccc2c(c1)nc(NC1CC1)c1nc(SCc3ccccc3Cl)ncc12` [drawing 635]: over 0.75 µM.
As to `CN(C)c1ncc2c(n1)c(NC1CC1)nc1cc(C(=O)O)ccc12`, under setting [1], the half-inhibitory concentration (IC50) is over 0.75 µM.
Same read-out and setting: to `O=C(O)c1ccc2c(c1)nc(Nc1cncc(C3CC3)c1)c1ccncc12` [drawing 640] belongs over 0.75 µM.
For `Clc1nc2ccccc2c2sccc12` [drawing 443], the IC50 (Table 11, read-out: CK2 IC50) is over 5 µM.

The values are drawn from patent US9062043B2, “Fused tricyclic compounds as serine-threonine protein kinase and PARP modulators” (SENHWA BIOSCIENCES, INC., priority 2006, dated 2015).
